Results from patent US10023534B2 (BRISTOL-MYERS SQUIBB COMPANY, priority 2014, dated 2018).
Like-named read-outs stand apart in the source and are kept apart here.

Protein sequences, listed by entry. Tags and fused reporters are not part of them. Lines headed by an entry give the natural chain unless they say otherwise; changes in a name come on top.
UniProt Q06187: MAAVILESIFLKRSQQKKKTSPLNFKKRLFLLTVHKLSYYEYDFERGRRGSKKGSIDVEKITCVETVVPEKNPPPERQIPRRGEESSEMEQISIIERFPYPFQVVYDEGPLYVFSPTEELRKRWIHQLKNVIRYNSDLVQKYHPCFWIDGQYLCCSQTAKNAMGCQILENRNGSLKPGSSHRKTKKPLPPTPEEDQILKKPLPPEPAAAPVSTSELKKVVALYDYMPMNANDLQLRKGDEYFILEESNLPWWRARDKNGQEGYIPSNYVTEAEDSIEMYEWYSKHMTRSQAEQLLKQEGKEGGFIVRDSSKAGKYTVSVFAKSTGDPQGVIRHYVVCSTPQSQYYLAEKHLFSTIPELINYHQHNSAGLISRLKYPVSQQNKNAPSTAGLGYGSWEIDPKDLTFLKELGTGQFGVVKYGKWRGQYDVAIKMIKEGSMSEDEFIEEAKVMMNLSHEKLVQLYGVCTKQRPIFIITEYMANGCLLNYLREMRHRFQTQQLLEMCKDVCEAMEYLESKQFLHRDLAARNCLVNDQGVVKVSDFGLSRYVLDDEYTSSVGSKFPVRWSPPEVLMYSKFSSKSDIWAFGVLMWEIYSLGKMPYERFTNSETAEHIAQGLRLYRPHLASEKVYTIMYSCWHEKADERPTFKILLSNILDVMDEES

Target: human recombinant Btk (Homo sapiens (Human), UniProt Q06187)
Assay: Human Recombinant Btk Enzyme Assay
Assay type: biochemical
Description: Human Recombinant Btk Enzyme Assay
To V-bottom 384-well plates were added test compounds, human recombinant Btk (1 nM, Invitrogen Corporation), fluoresceinated peptide (1.5 μM), ATP (20 μM), and assay buffer (20 mM HEPES pH 7.4, 10 mM MgCl2, 0.015% Brij 35 surfactant and 4 mM DTT in 1.6% DMSO), with a final volume of 30 μL. After incubating at room temperature for 60 min, the reaction was terminated by adding 45 μL of 35 mM EDTA to each sample. The reaction mixture was analyzed on the Caliper LABCHIP® 3000 (Caliper, Hopkinton, Mass.) by electrophoretic separation of the fluorescent substrate and phosphorylated product. […] Compounds were dissolved at 10 mM in DMSO and evaluated at eleven concentrations.

[1] = Table 3, ATP 20 μM, 60 min room temperature, read-out: Btk IC50 value
[2] = Table 4, read-out: Example Btk IC50
[3] = Table 4, Comparative Example, read-out: Comparative Example Btk IC50

SMILES	IC50 [1]	IC50 [2]	IC50 [3]
C=CC(=O)N1CCc2c(cccc2-c2c(Cl)cc(C(N)=O)c3[nH]c4ccccc4c23)C1 [Example 30]	0.3 nM		
C=CC(=O)N1CCc2c(cccc2-c2c(F)cc(C(N)=O)c3[nH]c4c(c23)CCC(C(F)(F)F)C4)C1 (single isomer, unassigned) [Comparative Example 20, 5-(2-Acryloyl-1,2,3,4-tetrahydroisoquinolin-5-yl)-6-fluoro-2-(trifluoromethyl)-2,3,4,9-tetrahydro-1H-carbazole-8-carboxamide]			27 nM
C=CC(=O)N1CCc2c(cccc2-c2c(F)cc(C(N)=O)c3[nH]c4cc(CCF)ccc4c23)C1 (racemic) [Example 26, 4-(2-acryloyl-1,2,3,4-tetrahydroisoquinolin-5-yl)-3-fluoro-7-(2-fluoroethyl)-9H-carbazole-1-carboxamide]	0.029 nM		
C=CC(=O)N1CCc2c(cccc2-c2c(F)cc(C(N)=O)c3[nH]c4c(c23)CCC(C(F)(F)F)C4)C1 (single isomer, unassigned) [Comparative Example 21, 5-(2-Acryloyl-1,2,3,4-tetrahydroisoquinolin-5-yl)-6-fluoro-2-(trifluoromethyl)-2,3,4,9-tetrahydro-1H-carbazole-8-carboxamide]			3 nM

Results, then the molecule that gave them:

IC50 [1]	IC50 [2]	IC50 [3]	SMILES
0.3 nM	0.3 nM		C=CC(=O)N1CCc2c(cccc2-c2c(F)cc(C(N)=O)c3[nH]c4c(c23)CCC(C(F)(F)F)C4)C1 (single isomer, unassigned) [Example 10, 5-(2-Acryloyl-1,2,3,4-tetrahydroisoquinolin-5-yl)-6-fluoro-2-(trifluoromethyl)-2,3,4,9-tetrahydro-1H-carbazole-8-carboxamide]
0.13 nM	0.13 nM		C=CC(=O)N1CCc2c(cccc2-c2c(F)cc(C(N)=O)c3[nH]c4c(c23)CCC(C(F)(F)F)C4)C1 (single isomer, unassigned) [Example 11, 5-(2-Acryloyl-1,2,3,4-tetrahydroisoquinolin-5-yl)-6-fluoro-2-(trifluoromethyl)-2,3,4,9-tetrahydro-1H-carbazole-8-carboxamide]
